# Earlier results as cited in patent US20160349242A1, “PLATFORM TECHNOLOGIES FOR SPONTANEOUSLY OCCURRING DISEASES” (Oatmeal Biotechnologies Group, LLC, priority 2009, published 2016).
# Tested on: cells in vitro
# Details: cited from earlier work
substance,measurement,value
bleomycin,increase of cytotoxicity by electropulsation,several thousand-fold
